The numbers were not newly measured in US20220080043A1, “OIL/SURFACTANT MIXTURES FOR SELF-EMULSIFICATION” (priority 2019, published 2022), which cites them from elsewhere.

Like-named read-outs stand apart in the source and are kept apart here.

For “alpha-tocopherol-polyethylene glycol succinate [TPGS]”, the HLB is recorded as 13-13.2. For the same substance, the HLB (Table 2, surfactants used) was 13-13.2.
